Assay results as given in patent publication US20260123631A1, “NATURAL PORPHIN SALT AND USE THEREOF AS PLANT GROWTH REGULATOR AND PLANT IMMUNITY INDUCER” (NANJING BOSTEC BIOLOGICAL ENGINEERING CO., LTD, priority 2022, published 2026).
“And” between values parts separate entries of the source, which are not always exact repeats. Equal entries are not always repeated.

Test: Water solubility of the prepared salts
Format: physicochemical
Settings: not given
In the case of ammonium chlorin [Example 54], the solubility in water was “easily soluble”. In the case of ammonium hydroxyhematin [Example 63], the solubility in water was “easily soluble”. With ammonium iron chlorin [Example 22] the solubility in water was “easily soluble”. For “ammonium iron chlorophyllin [Example 31]”, the solubility in water was “easily soluble”. For “ammonium iron hydroxychlorophyllin [Example 73]”, the solubility in water was “easily soluble”. With “ammonium zinc chlorophyllin [Example 35]” the solubility in water was “easily soluble”. For calcium chlorin [Example 56], the solubility in water was “soluble”. For “calcium copper chlorophyllin [Example 46]”, the solubility in water was “soluble”. For calcium hydroxyhematin [Example 65], the solubility in water was “soluble”. In the case of calcium iron chlorin [Example 24], the solubility in water was “soluble”. For “calcium iron hydroxychlorophyllin [Example 75]”, the solubility in water was “soluble”. For calcium zinc chlorophyllin [Example 37], the solubility in water was “soluble”. With magnesium chlorin [Example 55] the solubility in water was “soluble”. For “magnesium copper chlorophyllin [Example 45]”, the solubility in water was “soluble”. For magnesium hydroxyhematin [Example 64], the solubility in water was “soluble”. In the case of magnesium iron chlorin [Example 23], the solubility in water was “soluble”. For “magnesium iron hydroxychlorophyllin [Example 74]”, the solubility in water was “soluble”. In the case of “magnesium zinc chlorophyllin [Example 36]”, the solubility in water was “soluble”. In the case of “manganese zinc chlorophyllin [Example 40]”, the solubility in water was “slightly soluble”.

Test: Stability of sample solutions in the dark/under light
Settings: not given
Experimental: Determination: An appropriate amount of a salt sample was taken, dissolved with water, and diluted to prepare a test solution with a concentration of about 10 ppm. An acidic reference substance (extremely-insoluble in water) was prepared with a 30% to 50% ethanol aqueous solution into a test solution with a concentration of about 10 ppm.
Each test solution was scanned by an ultraviolet spectrophotometer (at 0 h) for absorbance in a range of 200 nm to 800 nm immediately after being prepared. Then a test solution of each sample was divided into two parts. One part was placed at room temperature of 25° C. in the dark, and the other part was placed under light with a light intensity of 30,000 lux. At 1 h, 2 h, and 3 h, a solution sample was collected and scanned for absorbance respectively.
An absorbance value of a maximum absorption peak at 0 h (starting) of each test solution was set as a relative content of 100%, and a ratio of an absorbance value at each time point to the absorbance value at 0 h was calculated to determine a relative content, %.
With calcium zinc chlorophyllin [Example 37] the Relative content was 60.41% and 48.22% and 42.39%. For iron chlorin [reference compound], the “Half-life t1/2 for relative content” value was 0.73 h. In the case of “manganese zinc chlorophyllin [Example 40]”, the Relative content was 58.33% and 50.00% and 44.70%. In the case of sodium iron chlorin [Example 21], the “Half-life t1/2 for relative content” value was 3.41 h.

Same assay, conditions: under light 30,000 lux, 1 h; salts in water, acidic reference in 30% to 50% ethanol
C=CC1=C(C)c2cc3[n-]c(cc4nc(cc5[n-]c(cc1n2)c(C)c5C=C)C(C)=C4CCC(=O)[O-])c(CCC(=O)[O-])c3C.[Cl-].[Fe+3].[Mn+2] [Example 15, manganese chlorhematin] gave a Relative content of 83.39%. Work on ammonium chlorin [Example 54] yielded a Relative content of 52.19%. For ammonium hydroxyhematin [Example 63], the Relative content was 75.37%. ammonium iron chlorin [Example 22] showed a Relative content of 63.54%. For “ammonium iron chlorophyllin [Example 31]”, the Relative content was 62.53%. “ammonium iron hydroxychlorophyllin [Example 73]” showed a Relative content of 64.04%. For “ammonium zinc chlorophyllin [Example 35]”, the Relative content was 56.43%. calcium chlorin [Example 56] gave a Relative content of 51.17%. In the case of “calcium copper chlorophyllin [Example 46]”, the Relative content was 75.63%. In the case of calcium hydroxyhematin [Example 65], the Relative content was 86.39%. In the case of calcium iron chlorin [Example 24], the Relative content was 76.78%. Work on “calcium iron hydroxychlorophyllin [Example 75]” yielded a Relative content of 81.89%.

Same assay, conditions: under light 30,000 lux, 2 h; salts in water, acidic reference in 30% to 50% ethanol
With ammonium chlorin [Example 54] the Relative content was 47.37%. With ammonium hydroxyhematin [Example 63] the Relative content was 64.41%. ammonium iron chlorin [Example 22] gave a Relative content of 61.41%. “ammonium iron chlorophyllin [Example 31]” gave a Relative content of 58.11%. Compound “ammonium iron hydroxychlorophyllin [Example 73]” has a Relative content of 60.10%. “ammonium zinc chlorophyllin [Example 35]” gave a Relative content of 50.21%. Compound calcium chlorin [Example 56] has a Relative content of 48.34%. In the case of “calcium copper chlorophyllin [Example 46]”, the Relative content was 70.42%. With calcium hydroxyhematin [Example 65] the Relative content was 85.55%. For calcium iron chlorin [Example 24], the Relative content was 67.79%. “calcium iron hydroxychlorophyllin [Example 75]” gave a Relative content of 74.32%.

Same assay, conditions: under light 30,000 lux, 3 h; salts in water, acidic reference in 30% to 50% ethanol
Compound ammonium chlorin [Example 54] has a Relative content of 41.33%. Work on ammonium hydroxyhematin [Example 63] yielded a Relative content of 61.27%. ammonium iron chlorin [Example 22] gave a Relative content of 55.37%. In the case of “ammonium iron chlorophyllin [Example 31]”, the Relative content was 51.07%. With “ammonium iron hydroxychlorophyllin [Example 73]” the Relative content was 52.18%. Work on “ammonium zinc chlorophyllin [Example 35]” yielded a Relative content of 48.37%. Compound calcium chlorin [Example 56] has a Relative content of 42.83%. With “calcium copper chlorophyllin [Example 46]” the Relative content was 64.38%. With calcium hydroxyhematin [Example 65] the Relative content was 75.80%. Work on calcium iron chlorin [Example 24] yielded a Relative content of 60.67%. In the case of “calcium iron hydroxychlorophyllin [Example 75]”, the Relative content was 62.43%.
